The target in the experiment is Neuronal acetylcholine receptor; alpha4/beta2 (Homo sapiens, UniProt P17787+P43681). The experiment is described as follows: Binding affinity to alpha4beta2 nAChR. The experiment is classed as protein-complex assay.

The chains behind the UniProt entries cited, without tags or fusion partners. Residues count along the entry.
UniProt P17787, 26-502 limits assumed: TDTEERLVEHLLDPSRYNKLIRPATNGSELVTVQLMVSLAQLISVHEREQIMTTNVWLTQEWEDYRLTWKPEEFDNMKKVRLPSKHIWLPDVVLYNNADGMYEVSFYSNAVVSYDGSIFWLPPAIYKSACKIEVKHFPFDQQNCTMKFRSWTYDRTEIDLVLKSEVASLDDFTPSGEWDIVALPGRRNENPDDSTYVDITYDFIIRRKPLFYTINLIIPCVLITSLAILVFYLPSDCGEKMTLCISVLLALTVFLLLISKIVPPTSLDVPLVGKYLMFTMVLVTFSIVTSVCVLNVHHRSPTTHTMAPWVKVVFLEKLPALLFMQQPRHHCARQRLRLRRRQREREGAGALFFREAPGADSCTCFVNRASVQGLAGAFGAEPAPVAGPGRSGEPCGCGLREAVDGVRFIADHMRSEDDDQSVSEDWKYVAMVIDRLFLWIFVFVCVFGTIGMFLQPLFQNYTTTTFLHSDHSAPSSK
UniProt P43681, 27-627 limits assumed: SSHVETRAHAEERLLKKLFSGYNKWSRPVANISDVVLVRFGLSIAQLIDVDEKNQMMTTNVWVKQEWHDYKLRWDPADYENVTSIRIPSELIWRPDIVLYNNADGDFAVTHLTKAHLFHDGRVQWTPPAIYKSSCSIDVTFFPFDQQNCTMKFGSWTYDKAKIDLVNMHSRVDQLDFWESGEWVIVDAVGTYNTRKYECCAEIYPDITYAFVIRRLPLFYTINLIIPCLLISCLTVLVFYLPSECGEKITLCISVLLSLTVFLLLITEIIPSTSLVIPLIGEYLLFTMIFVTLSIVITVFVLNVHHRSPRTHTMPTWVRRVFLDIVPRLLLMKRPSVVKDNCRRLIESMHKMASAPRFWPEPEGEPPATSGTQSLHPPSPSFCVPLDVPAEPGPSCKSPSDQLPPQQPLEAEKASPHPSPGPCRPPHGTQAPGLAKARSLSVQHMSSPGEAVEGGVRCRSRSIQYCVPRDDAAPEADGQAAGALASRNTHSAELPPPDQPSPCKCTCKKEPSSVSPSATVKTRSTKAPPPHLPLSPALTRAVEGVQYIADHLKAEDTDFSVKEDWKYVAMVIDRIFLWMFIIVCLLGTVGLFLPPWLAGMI

As a reminder, the Ki is a dissociation constant, usually derived from enzyme kinetics or from competition with a known ligand. Lower therefore signals tighter binding.

Compound `CC(=O)C1=CCCC2CCC1N2` (stereo unspecified) displayed a Ki of 1.1 nM.

For the origin of these results see ChEMBL document CHEMBL2176988 (J Med Chem, 2012).
